The values below come from patent US6506751B1, “Thiazolidinone compounds useful as chemokine inhibitors” (Millennium Pharmaceuticals, Inc., priority 1999, dated 2003).

Chains of the proteins cited; added tags and fusions are not shown.
UniProt P51681, whole entry: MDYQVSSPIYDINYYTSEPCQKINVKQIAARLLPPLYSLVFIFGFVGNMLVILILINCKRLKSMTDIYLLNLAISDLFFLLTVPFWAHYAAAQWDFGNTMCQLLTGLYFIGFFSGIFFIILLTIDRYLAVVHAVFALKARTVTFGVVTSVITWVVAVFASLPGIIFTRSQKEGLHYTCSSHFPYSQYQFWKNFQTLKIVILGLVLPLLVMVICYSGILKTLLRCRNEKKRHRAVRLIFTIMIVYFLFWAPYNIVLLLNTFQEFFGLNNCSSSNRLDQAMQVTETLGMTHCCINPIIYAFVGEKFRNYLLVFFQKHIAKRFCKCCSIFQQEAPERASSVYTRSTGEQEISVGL

This assay addresses CCR-5 receptor (Homo sapiens, UniProt P51681). The experiment in a line: 125I-gp120/sCD4/CCR-5 binding assay (CCR-5 receptor binding assay). The following applies: block of 125I-gp120 (HIV-1 JR-FL)/sCD4 binding to membranes from CCR-5/L 1.2 cells; tested form: 0.67 H2O. As to the method:
The ^125I-gp120/sCD4/CCR-5 binding assay is carried out similarly as described in Wu et al., Nature, 1996;384:179-183. Briefly, the envelope gp120 protein derived from HIV-1 JR-FL (Trkola et al., Nature, 1996;384:184-186), a M-tropic strain, is iodinated using solid phase lactoperoxidase to a specific activity of 20 μCi/μg. For each binding reaction (in a final volume of 100 μL binding buffer [50 mM HEPES, pH 7.5, 1 mM CaCl2, 5 mM MgCl2, and 0.5% BSA]), 25 μL (2.5 μg) of membranes prepared from CCR-5/L 1.2 cells are mixed with 25 μL (3 nM) sCD4, followed by 25 μL (0.1 nM) radiolabeled gp120 in the presence or absence of 25 μL compound dissolved in DMSO (final concentration of DMSO 0.5%). The reactions are incubated at room temperature for 45 to 60 minutes and stopped by transferring the mixture to GFB filter plates, which are then washed 3 to 4 times with binding buffer containing 0.5 M NaCl. The plates are dried and MicroScint scintillation fluid is added before counting.

The structures appear in SMILES notation.

As to `O=C1C(=Cc2cccnc2)SC(c2cccc(Cl)c2)N1CCCN1CCCCC1` (stereo not shown), the IC50 – broadly, the concentration needed to halve the response being measured – came to 71 nM.
